Cyclic peptide permeability, from CycPeptMPDB

Source: CycPeptMPDB (Li et al. 2023), which took these values from Townsend et al. 2020, doi:10.26434/chemrxiv.13335941.v1.

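Conditions beyond the assay type are not listed; see the original paper. Other peptides of the study may be missing here. Peptides that the database sets to -10, its floor, are left out.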

PAMPA is the parallel artificial membrane permeability assay, which has no cells and reads passive diffusion. Values are log10 P with P in cm/s, so -5 is more permeable than -7.

CC(C)C[C@@H]1C(=O)N2CCC[C@@H]2C(=O)N(Cc2ccccc2)CC(=O)N[C@@H](Cc2ccccc2)C(=O)N[C@@H](C)C(=O)N[C@H](CC(C)C)C(=O)N1C is reported with PAMPA -6.23 (log10 cm/s). For CC(C)C[C@H]1C(=O)N(C)[C@@H](CC(C)C)C(=O)N2CCC[C@H]2C(=O)N(Cc2ccccc2)CC(=O)N[C@@H](Cc2ccccc2)C(=O)N2CCC[C@H]2C(=O)N(C)[C@H](C)C(=O)N1C the data give PAMPA -5.55 (log10 cm/s). Listed for CC(C)C[C@@H]1NC(=O)[C@@H](C)NC(=O)[C@@H]2CCCN2C(=O)[C@H](Cc2ccccc2)NC(=O)[C@@H](CC(C)C)N(C)C(=O)[C@@H]2CCCN2C(=O)C[C@H](Cc2ccccc2)NC1=O: PAMPA -5.89 (log10 cm/s). The entry for CC(C)C[C@H]1NC(=O)[C@@H]2CCCN2C(=O)CN(Cc2ccccc2)C(=O)[C@@H](CC(C)C)NC(=O)C[C@H](Cc2ccccc2)NC(=O)[C@H]2CCCN2C(=O)[C@H](Cc2ccccc2)NC1=O lists PAMPA -5.73 (log10 cm/s). CC(C)C[C@H]1NC(=O)[C@@H](C)N(C)C(=O)[C@@H]2CCCN2C(=O)[C@H](Cc2ccccc2)NC(=O)[C@H](CC(C)C)N(C)C(=O)[C@H]2CCCN2C(=O)CN(Cc2ccccc2)C1=O has PAMPA -6.04 (log10 cm/s). The entry for CC(C)C[C@@H]1NC(=O)[C@H](C)NC(=O)[C@H](Cc2ccccc2)NC(=O)CN(Cc2ccccc2)C(=O)[C@@H]2CCCN2C(=O)[C@@H](CC(C)C)N(C)C1=O lists PAMPA -5.56 (log10 cm/s).

CC(C)C[C@@H]1C(=O)N2CCC[C@H]2C(=O)N(C)[C@H](CC(C)C)C(=O)N[C@@H](Cc2ccccc2)C(=O)N[C@@H](C)C(=O)N(Cc2ccccc2)CC(=O)N1C is reported with PAMPA -5.59 (log10 cm/s). Listed for CC(C)C[C@@H]1NC(=O)[C@@H]2CCCN2C(=O)[C@@H](CC(C)C)N(C)C(=O)[C@@H](CC(C)C)NC(=O)[C@H](C)N(C)C(=O)[C@H]2CCCN2C(=O)[C@H](Cc2ccccc2)NC1=O: PAMPA -6.45 (log10 cm/s). The entry for CC(C)C[C@@H]1NC(=O)C[C@H](Cc2ccccc2)NC(=O)[C@H](Cc2ccccc2)NC(=O)[C@H](CC(C)C)N(C)C(=O)[C@H]2CCCN2C(=O)C[C@H](Cc2ccccc2)NC1=O lists PAMPA -5.37 (log10 cm/s). Listed for CC(C)C[C@H]1C(=O)N[C@@H](Cc2ccccc2)C(=O)N2CCC[C@H]2C(=O)N[C@H](C)C(=O)N(C)[C@@H](CC(C)C)C(=O)N(C)[C@@H](CC(C)C)C(=O)N2CCC[C@@H]2C(=O)N1C: PAMPA -5.37 (log10 cm/s). The entry for CC(C)C[C@@H]1NC(=O)[C@@H](CC(C)C)N(C)C(=O)C[C@H](Cc2ccccc2)NC(=O)[C@@H]2CCCN2C(=O)[C@H](Cc2ccccc2)NC(=O)[C@H](CC(C)C)N(C)C(=O)[C@H]2CCCN2C1=O lists PAMPA -5.37 (log10 cm/s). Listed for CC(C)C[C@@H]1C(=O)N[C@@H](Cc2ccccc2)C(=O)N2CCC[C@@H]2C(=O)N[C@@H](C)C(=O)N(C)[C@@H](CC(C)C)C(=O)N(C)[C@@H](CC(C)C)C(=O)N2CCC[C@H]2C(=O)N1C: PAMPA -6.06 (log10 cm/s).

CC(C)C[C@@H]1NC(=O)[C@@H](C)NC(=O)[C@H](Cc2ccccc2)NC(=O)[C@H](CC(C)C)N(C)C(=O)[C@@H]2CCCN2C(=O)[C@@H](CC(C)C)N(C)C1=O has PAMPA -5.78 (log10 cm/s). The entry for CCCN1CC(=O)N(Cc2ccccc2)CC(=O)N(C)[C@H](CC(C)C)C(=O)N2CCC[C@H]2C(=O)N[C@@H](CC(C)C)C(=O)N[C@@H](Cc2ccccc2)C(=O)N2CCC[C@H]2C1=O lists PAMPA -5.99 (log10 cm/s). Listed for CCCN1CC(=O)N(C)[C@@H](CC(C)C)C(=O)N[C@@H](CC(C)C)C(=O)N2CCC[C@H]2C(=O)N(C)[C@H](CC(C)C)C(=O)N[C@@H](Cc2ccccc2)C1=O: PAMPA -4.80 (log10 cm/s). CC(C)C[C@@H]1C(=O)N2CCC[C@H]2C(=O)N(C)[C@@H](CC(C)C)C(=O)N[C@@H](Cc2ccccc2)C(=O)N2CCC[C@H]2C(=O)N[C@@H](Cc2ccccc2)CC(=O)N[C@H](CC(C)C)C(=O)N1C is reported with PAMPA -5.56 (log10 cm/s). CC(C)C[C@H]1NC(=O)[C@@H]2CCCN2C(=O)CN(Cc2ccccc2)C(=O)[C@@H](CC(C)C)NC(=O)[C@@H](C)NC(=O)[C@H](Cc2ccccc2)NC1=O is reported with PAMPA -6.45 (log10 cm/s). Listed for CCCN1CC(=O)N(Cc2ccccc2)CC(=O)N[C@H](CC(C)C)C(=O)N2CCC[C@@H]2C(=O)N(C)[C@H](CC(C)C)C(=O)N[C@@H](Cc2ccccc2)C(=O)N2CCC[C@@H]2C1=O: PAMPA -5.66 (log10 cm/s).

Listed for CC(C)C[C@@H]1NC(=O)[C@@H]2CCCN2C(=O)[C@@H](CC(C)C)N(C)C(=O)[C@@H](CC(C)C)NC(=O)[C@H](C)N(C)C(=O)[C@H](Cc2ccccc2)NC1=O: PAMPA -4.90 (log10 cm/s). For CCCN1CC(=O)N[C@@H](CC(C)C)C(=O)N(C)[C@H](CC(C)C)C(=O)N2CCC[C@H]2C(=O)N[C@H](CC(C)C)C(=O)N[C@@H](Cc2ccccc2)C(=O)N2CCC[C@@H]2C1=O the data give PAMPA -5.43 (log10 cm/s). Listed for CC(C)C[C@H]1C(=O)N[C@@H](Cc2ccccc2)CC(=O)N2CCC[C@@H]2C(=O)N(Cc2ccccc2)CC(=O)N[C@@H](Cc2ccccc2)C(=O)N2CCC[C@@H]2C(=O)N(C)[C@@H](C)C(=O)N1C: PAMPA -5.80 (log10 cm/s). For CC(C)C[C@H]1NC(=O)[C@H]2CCCN2C(=O)C[C@H](Cc2ccccc2)NC(=O)[C@H](CC(C)C)N(C)C(=O)[C@@H](C)N(C)C(=O)[C@H]2CCCN2C(=O)[C@H](Cc2ccccc2)NC1=O the data give PAMPA -6.30 (log10 cm/s). Listed for CC(C)C[C@@H]1NC(=O)[C@@H]2CCCN2C(=O)[C@H](CC(C)C)N(C)C(=O)[C@@H](CC(C)C)N(C)C(=O)[C@H](C)NC(=O)[C@H]2CCCN2C(=O)[C@H](Cc2ccccc2)NC1=O: PAMPA -5.90 (log10 cm/s). CC(C)C[C@@H]1C(=O)N[C@@H](Cc2ccccc2)C(=O)N2CCC[C@H]2C(=O)N[C@@H](Cc2ccccc2)CC(=O)N[C@H](CC(C)C)C(=O)N(Cc2ccccc2)CC(=O)N2CCC[C@H]2C(=O)N1C is reported with PAMPA -6.05 (log10 cm/s).

The first 2 entries again:

CC(C)C[C@@H]1C(=O)N2CCC[C@@H]2C(=O)N(Cc2ccccc2)CC(=O)N[C@@H](Cc2ccccc2)C(=O)N[C@@H](C)C(=O)N[C@H](CC(C)C)C(=O)N1C has PAMPA -6.23 (log10 cm/s).
CC(C)C[C@H]1C(=O)N(C)[C@@H](CC(C)C)C(=O)N2CCC[C@H]2C(=O)N(Cc2ccccc2)CC(=O)N[C@@H](Cc2ccccc2)C(=O)N2CCC[C@H]2C(=O)N(C)[C@H](C)C(=O)N1C has PAMPA -5.55 (log10 cm/s).